# Laboratory results from PMC5933747 (PLoS ONE, 2018).
# Protein sequences, listed by entry. Tags and fused reporters are not part of them.
# UniProt Q15858, whole entry: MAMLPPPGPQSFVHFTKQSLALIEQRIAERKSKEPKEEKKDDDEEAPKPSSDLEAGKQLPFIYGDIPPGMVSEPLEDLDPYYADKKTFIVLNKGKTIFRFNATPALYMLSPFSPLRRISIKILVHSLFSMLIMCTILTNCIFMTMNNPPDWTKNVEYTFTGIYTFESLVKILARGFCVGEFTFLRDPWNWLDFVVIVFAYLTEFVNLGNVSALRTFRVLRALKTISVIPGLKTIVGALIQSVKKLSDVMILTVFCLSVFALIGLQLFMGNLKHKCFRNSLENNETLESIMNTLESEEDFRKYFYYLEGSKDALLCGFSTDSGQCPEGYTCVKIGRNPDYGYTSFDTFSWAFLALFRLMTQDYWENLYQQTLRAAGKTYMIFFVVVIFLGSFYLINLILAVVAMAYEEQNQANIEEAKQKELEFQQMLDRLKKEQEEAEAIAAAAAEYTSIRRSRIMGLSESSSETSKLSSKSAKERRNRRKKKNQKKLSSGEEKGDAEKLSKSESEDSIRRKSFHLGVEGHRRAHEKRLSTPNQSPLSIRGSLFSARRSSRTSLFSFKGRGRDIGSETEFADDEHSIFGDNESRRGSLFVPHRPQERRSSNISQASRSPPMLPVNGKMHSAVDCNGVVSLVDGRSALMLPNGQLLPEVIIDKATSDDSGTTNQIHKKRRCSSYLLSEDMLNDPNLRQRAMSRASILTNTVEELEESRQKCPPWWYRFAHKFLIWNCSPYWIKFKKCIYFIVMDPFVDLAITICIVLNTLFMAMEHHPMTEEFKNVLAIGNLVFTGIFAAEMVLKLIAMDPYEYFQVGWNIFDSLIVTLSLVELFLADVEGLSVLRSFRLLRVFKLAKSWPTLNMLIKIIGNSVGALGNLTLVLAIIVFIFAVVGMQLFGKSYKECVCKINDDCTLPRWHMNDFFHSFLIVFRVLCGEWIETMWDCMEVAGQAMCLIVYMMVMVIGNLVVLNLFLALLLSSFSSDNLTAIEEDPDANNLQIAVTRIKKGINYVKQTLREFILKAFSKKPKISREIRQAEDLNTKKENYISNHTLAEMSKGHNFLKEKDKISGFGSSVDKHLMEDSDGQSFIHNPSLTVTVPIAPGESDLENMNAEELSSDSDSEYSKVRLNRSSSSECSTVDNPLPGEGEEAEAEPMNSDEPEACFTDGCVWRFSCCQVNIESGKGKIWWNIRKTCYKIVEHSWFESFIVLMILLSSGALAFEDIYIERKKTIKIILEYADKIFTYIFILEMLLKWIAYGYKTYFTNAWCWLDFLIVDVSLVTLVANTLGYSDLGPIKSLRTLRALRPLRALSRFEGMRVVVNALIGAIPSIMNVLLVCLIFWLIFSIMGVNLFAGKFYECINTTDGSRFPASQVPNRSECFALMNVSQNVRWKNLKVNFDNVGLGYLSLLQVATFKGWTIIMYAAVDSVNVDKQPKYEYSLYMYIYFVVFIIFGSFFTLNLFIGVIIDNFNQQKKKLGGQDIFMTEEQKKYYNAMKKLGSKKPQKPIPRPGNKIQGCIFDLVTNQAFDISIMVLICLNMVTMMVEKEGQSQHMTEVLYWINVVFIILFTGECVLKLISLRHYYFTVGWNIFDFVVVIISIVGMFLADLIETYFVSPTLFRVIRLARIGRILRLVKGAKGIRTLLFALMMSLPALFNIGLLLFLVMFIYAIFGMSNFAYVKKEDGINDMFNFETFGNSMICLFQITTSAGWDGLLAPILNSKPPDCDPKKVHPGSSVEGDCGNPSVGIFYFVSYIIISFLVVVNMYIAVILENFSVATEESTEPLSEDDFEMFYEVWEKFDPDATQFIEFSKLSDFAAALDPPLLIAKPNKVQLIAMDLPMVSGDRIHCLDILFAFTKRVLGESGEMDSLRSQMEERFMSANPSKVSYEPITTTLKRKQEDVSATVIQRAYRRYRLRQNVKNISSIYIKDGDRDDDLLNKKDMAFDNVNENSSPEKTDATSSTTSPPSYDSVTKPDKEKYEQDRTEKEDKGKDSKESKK
# Target: human NaV1.7 (Homo sapiens, UniProt Q15858)
# Test: 125I-ProTx-II radioligand binding to live HEK293 cells stably expressing human NaV1.7
# Conditions: 0.5 nM 125I-ProTx-II, 3 h, increasing concentrations of cold peptide
substance,measurement,value
ProTx-II,competition for 125I-ProTx-II binding,competed
